Results from patent US9730795B2, “Endosseous implant” (UNIVERSITE DE GENEVE, priority 2000, dated 2017).

Tested on: rat bone building cells, osteoblasts
Assay: Osteogenesis (cell proliferation and bone protein synthesis) of rat osteoblasts plated on treated titanium implants
Assay type: cell-based
Details: compared with Table 1 / non treated implant

B1: 5: ethane-1,1,3-triphosphonic acid modified by linking the amine terminus (Methionine) of human Bone Morphogenic Protein type 2 (BMP-2) to one phosphonate group (conjugate, UniProt P12643 283-396, looked up)
Bone morphogenetic protein 2: QAKHKQRKRLKSSCKRHPLYVDFSDVGWNDWIVAPPGYHAFYCHGECPFPLADHLNSTNHAIVQTLVNSVNSKIPKACCVPTELSAISMLYLDENEKVVLKNYQDMVVEGCGCR
modifications: N-terminal ethane-1,1,3-triphosphonic acid conjugate
notes: ethane-1,1,3-triphosphonic acid modified by linking the amine terminus (Methionine) of human Bone Morphogenic Protein type 2 (BMP-2) to one phosphonate group
Osteogenesis (cell proliferation and bone protein synthesis), result in words: analogous test results as given in Table 1
